This assay relates to MIA-induced osteoarthritic pain in rats. The experiment in a line: Osteoarthritic (OA) pain induced by sodium monoiodoacetate (MIA), hind limb grip force. Conditions: rat, in vivo. The method, then:
Osteoarthritic (OA) Pain Induced by Sodium Monoiodoacetate (MIA)
Pain behavior was assessed by measurement of hind limb grip force (GF) in adult osteoarthritic rats. Male Sprague Dawley rats, obtained from Charles River Laboratories, (Wilmington, Mass.), weighing 150-175 g, were injected in the unilateral knee join with a single intra-articular injection of sodium monoiodoacetate (MIA, 3 mg/rat). All rats were tested at 20 days following MIA injection. A behavioral measure of activity-induced pain was carried out. Measurements of the peak hind limb grip force were conducted by recording the maximum compressive force (CFmax), in grams of force, exerted on a hind limb strain gauge setup, in a commercially available grip force measurement system (Columbus Instruments, Columbus, Ohio).
During testing, each rat was gently restrained by grasping it around its rib cage and then allowed to grasp the wire mesh frame attached to the strain gauge. […]
For evaluating the compound effects, the hind limb grip force was conducted 20 days following the intra-articular injection of MIA. […] The % effect for each dose group was expressed as % return of response to normalcy, compared to the nave group. A percent maximal possible effect (% MPE) of testing compound was calculated according to the formula: (Treatment CFmax−Vehicle CFmax)/Vehicle CFmax]×100). […]

With `CC[C@H]1CCCN1C(=O)CN1CCN(c2cccc3c2cnn3-c2ccccc2F)C1=O` [Example 21, 1-{2-[(2S)-2-ethylpyrrolidin-1-yl]-2-oxoethyl}-3-[1-(2-fluorophenyl)-1H-indazol-4-yl]imidazolidin-2-one], the “OA MPE (%)” value worked out at 21%.

The values above are taken from patent US9783527B2, “Indazole ureas and method of use” (AbbVie Inc., priority 2014, dated 2017).
